Results: patent US12357701B2, “Anti-HER2 biparatopic antibody-drug conjugates and methods of use” (Zymeworks BC Inc., priority 2018, dated 2025)
Where “and” joins values, the source holds several entries; their conditions need not be identical. Equal values may be shown once.

Assay: GLP toxicity study of v21252
Assay type: in vivo, cynomolgus monkeys

## CCC(C)[C@@H]([C@@H](CC(=O)N1CCC[C@H]1[C@H](OC)[C@@H](C)C(=O)NS(=O)(=O)c1ccc(N)cc1)OC)N(C)C(=O)[C@@H](NC(=O)[C@H](C(C)C)N(C)C)C(C)C (stereo in doubt) [Compound 9, (S)—N-((3R,4S,5R)-1-((S)-2-((1R,2R)-3-((4-aminophenyl)sulfonamido)-1-methoxy-2-methyl-3-oxopropyl)pyrrolidin-1-yl)-3-methoxy-5-methyl-1-oxoheptan-4-yl)-2-((S)-2-(dimethylamino)-3-methylbutanamido)-N,3-dimethylbutanamide]
One female, v21252 12 mg/kg, Day 43, 72 hr post dose
  toxin (Compound 9) serum concentration: 0.513 ng/mL
One male, v21252 18 mg/kg, Day 29, 1 hr following SOI
  toxin (Compound 9) serum concentration: 0.532 ng/mL
Two males and two females, respectively, v21252 18 mg/kg, Day 43, 24 hr following SOI
  toxin (Compound 9) serum concentration: 0.555 ng/mL and 0.505 ng/mL and 0.556 ng/mL and 0.653 ng/mL
